Test results from patent US6355633B1, “Aryl sulfonic acids and derivatives as FSH antagonists” (American Home Products Corporation, priority 1999, dated 2002).

Legend:
FSH receptor [1] = target: T1, FSH receptor (Rattus norvegicus, UniProt P20395); experiment: In Vitro Bio-test Procedure of Agonists and Antagonists to the FSH Receptor Using Primary Cultures of Rat Granulosa (estradiol secretion); type: cell-based; settings: rat granulosa cells, previously calculated during characterization of the bioprocedure
T1 construct: endogenous in cells; host or cells: primary ovarian granulosa cells of DES-treated immature Sprague-Dawley rats
T1 sequence (P20395 18-692): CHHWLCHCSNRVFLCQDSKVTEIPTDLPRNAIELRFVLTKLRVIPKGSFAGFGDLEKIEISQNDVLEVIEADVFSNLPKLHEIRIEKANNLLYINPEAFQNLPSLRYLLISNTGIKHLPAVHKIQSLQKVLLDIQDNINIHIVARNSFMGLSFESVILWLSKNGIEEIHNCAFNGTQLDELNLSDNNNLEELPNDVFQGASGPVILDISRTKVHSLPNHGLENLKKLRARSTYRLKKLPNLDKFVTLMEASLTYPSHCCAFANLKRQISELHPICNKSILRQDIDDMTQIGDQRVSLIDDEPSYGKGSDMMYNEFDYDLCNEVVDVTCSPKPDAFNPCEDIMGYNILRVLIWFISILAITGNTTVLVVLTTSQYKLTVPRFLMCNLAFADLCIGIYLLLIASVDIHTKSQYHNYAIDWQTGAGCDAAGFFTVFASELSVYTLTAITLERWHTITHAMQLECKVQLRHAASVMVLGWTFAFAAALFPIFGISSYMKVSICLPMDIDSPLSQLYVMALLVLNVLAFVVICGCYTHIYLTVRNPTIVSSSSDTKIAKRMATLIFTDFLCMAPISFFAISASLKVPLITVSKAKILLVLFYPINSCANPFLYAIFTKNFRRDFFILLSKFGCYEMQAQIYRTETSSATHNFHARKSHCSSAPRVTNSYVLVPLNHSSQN
Source text: In Vitro Bio-test Procedure of Agonists and Antagonists to the FSH Receptor Using Primary Cultures of Rat Granulosa
Objective: This procedure was used as a low-throughput functional screening procedure to study in vitro efficacy of compounds found to be agonists or antagonists of the FSH receptor.
Materials and Methods: Reagents
Compound Vehicle: Stock compounds were solubilized in an appropriate vehicle, preferably PBS (phosphate buffered saline) or DMSO (dimethyl sulfoxide), at a concentration of 0.1 M. The compounds were subsequently diluted in sterile challenge medium [McCoy's 5A medium (Gibco/BRL, Grand Island, N.Y.) supplemented with […], […], 5 ng/mL sodium selenite (ITS, Sigma Chemical Co., St. Louis, Mo.), 146 mg/mL L-glutamine, 100 nM testosterone, 100 nM DES and 100 U/mL penicillin/[…]/250 ng/mL amphotericin B (antibiotic/antimycotic, Gibco) and 0.1% bovine serum albumin (Sigma, St. Louis, Mo.)] prior to use in the procedure. […]
Preparation of Granulosa Cells: Twenty-four day-old immature female Sprague-Dawley rats (Charles River Laboratories, Wilmington, Mass.) were used as donors for ovarian granulosa cells. […] After the final spin, the cells were resuspended by gentle trituration in 25 mL serum-free medium, an aliquot counted in a hemocytometer and viability estimated by trypan blue exclusion. […]

[2] = system: FSH-induced changes in ovarian follicular maturation; experiment: Immature Rat Test Procedure (FSH-induced organ wet weight); type: in vivo; settings: immature rats
Description: Immature Rat Test Procedure
In order to assess the ability of compounds to affect FSH-induced changes in ovarian follicular maturation in vivo, immature rats (18 days of age) are treated twice daily for three days with compound in the presence of a half-maximal dose of purified human FSH. Animals are treated via the i.p. or p.o. routes. On the fourth day following treatment, animals are euthanized and the ovaries, uterus and spleen (the spleen is a control tissue that should not respond to FHS stimulation) collected for wet weight determination. In each experiment animals treated with vehicle alone or FSH alone are used as negative and positive controls, respectively. In this paradigm FSH induces a 2-3-fold increase in ovarian and uterine wet weight but has no effect on the spleen (control tissue).

FSH receptor [3] = target: T2, FSH receptor (Homo sapiens, UniProt P23945); experiment: In Vitro Bio-test Procedure of Agonists and Antagonists to the FSH Receptor (cAMP accumulation in CHO-3D2 cells); type: cell-based; parameters: expressed in transfected cells; host or cells: CHO-3D2 cells; settings: agonist mode, four-parameter logistic equation
T2 sequence (P23945 18-695): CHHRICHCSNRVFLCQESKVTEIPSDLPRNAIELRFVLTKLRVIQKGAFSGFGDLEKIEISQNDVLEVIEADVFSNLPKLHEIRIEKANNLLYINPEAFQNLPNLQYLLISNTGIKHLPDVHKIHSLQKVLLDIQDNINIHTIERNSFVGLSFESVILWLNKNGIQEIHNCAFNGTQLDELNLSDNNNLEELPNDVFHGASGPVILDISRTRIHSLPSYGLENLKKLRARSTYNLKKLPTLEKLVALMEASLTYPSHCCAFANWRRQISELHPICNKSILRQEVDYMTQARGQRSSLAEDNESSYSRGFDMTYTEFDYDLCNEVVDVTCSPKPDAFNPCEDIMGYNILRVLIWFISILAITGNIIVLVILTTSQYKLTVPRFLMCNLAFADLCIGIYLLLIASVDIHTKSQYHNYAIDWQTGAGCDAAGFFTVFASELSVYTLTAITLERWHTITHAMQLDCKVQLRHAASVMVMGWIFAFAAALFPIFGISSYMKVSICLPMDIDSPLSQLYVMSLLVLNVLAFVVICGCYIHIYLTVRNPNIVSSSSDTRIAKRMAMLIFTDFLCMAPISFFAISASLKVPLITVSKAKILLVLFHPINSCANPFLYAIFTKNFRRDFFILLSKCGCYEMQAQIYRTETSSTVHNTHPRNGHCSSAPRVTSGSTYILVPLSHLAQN
Source text: In Vitro Bio-test Procedure of Agonists and Antagonists to the FSH Receptor
Objective: This procedure was used to verify in vitro efficacy of compounds found to bind to the FSH receptor in the binding procedure.
Compound Vehicle: Stock compounds were solubilized in an appropriate vehicle preferably PBS/0.1% Bovine Serum Albumin (BSA; Sigma Chemical Co., St. Louis, Mo.). The compounds were subsequently diluted in sterile procedure medium (Optimem (Gibco/BRL, Grand Island, N.Y.)/0.1% BSA) prior to use in the bio-procedure.
Preparation of CHO-3D2 Cells; CHO-3D2 cells were plated into 96-well Nunc tissue culture plates at a density of 30,000 cells/well in DMEM/F12 medium (Gibco/BRL, Grand Island, N.Y.) supplemented with 5% Fetal Bovine Serum (Hyclone, Fetal Clone II), 2 mM L-glutamine and penicillin/streptomycin (100 U/mL). Cells were plated one day prior to performing the bio-procedure.
Procedure: On the day of procedure, the wells were washed two times with 100 ul/well of pre-warmed (37 deg C.) procedure medium. After aspirating the second wash, an additional 100 ul of procedure medium was added to each well and the cells pre-incubated for 30-45 minutes at 37 deg C. In a humidified incubator with 5%CO2/95% air. […] CAMP accumulation in the medium was measured by radioimmunoassay. […]
For antagonist mode, compounds were tested in a dose-response paradigm versus a constant level of purified human FSH (the ED20 (1.85 ng/mL); previously calculated during characterization of the bio-procedure). […]
The doses chosen to test each compound were extrapolated from the initial screening process (receptor binding data). […] The cells were washed two times with 100 ul PBS followed by examination of the cells under a fluorescence microscope using a 490 nm filter. […]
Analysis of Results: cAMP accumulation was expressed as fmol/mL. […] Data were analyzed statistically by analysis of variance and significant differences between treatments and control determined by Dunnett's test. […]

- ED50, estradiol secretion (FSH receptor [1]): 0.5 ng/mL
- apparent ED20, cAMP accumulation (FSH receptor [3]): 1.85 ng/mL
- apparent ED50, cAMP accumulation (FSH receptor [3]): 6.03 ng/mL
- apparent ED80, cAMP accumulation (FSH receptor [3]): 22.55 ng/mL
Substance: hFSH: purified or recombinant human FSH (follicle stimulating hormone), reference compound and positive control
- effect on the spleen (control tissue) ([2]; FSH alone): no effect
- increase in ovarian and uterine wet weight ([2]; FSH alone (positive control)): 2-3 fold
